Only a part is listed here, and it is no random draw. Activity calls are given as the source filed them.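 Rule for the calls: active = fluorescence response below the plate's average for near-maximal glutamate wells, less 3 SD of those wells; inactive = the rest.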

The assay addresses Metabotropic glutamate receptor 4 (Homo sapiens) (UniProt Q14833). The experiment in a line: human mGluR4 response to M1 antagonist hits, M1 allosteric modulator project, cell-based, antagonist mode, secondary assay 1 (AID 678).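 Note: raw unnormalized fluorescence span taken in the window right after glutamate addition.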 The conditions noted are these: CHO-mGluR4 calcium flux, Fluo-4 fluorescence, glutamate EC80; at 10 µM; active compounds read low. On the technique in general: A change in cytosolic calcium serves as a functional read-out for many receptors and channels.
For `O=C(OC1CN2CCC1CC2)c1cccc(Cl)c1` (centres undefined), the fluorescence response (max-min) is inactive: 215.
Consider `Cc1ccc(OCC(=O)OC2CN3CCC2CC3)cc1` (centres undefined), for which the fluorescence response (max-min) is inactive: 260.
To `O=C(OC1CN2CCC1CC2)C12CC3CC(CC(C3)C1)C2` (centres undefined) belongs inactive: 187; to `O=C(COc1ccccc1)OC1CN2CCC1CC2` (centres undefined), inactive: 217.

The values above are taken from PubChem BioAssay AID678 (Vanderbilt High Throughput Screening Facility, 2007).
